Assay [1] is described as follows: Binding affinity of the Corticosteroid-Binding Globulin Receptor with cortisone.
Assay [2] can be described thus: Binding affinity of the Corticosteroid-Binding Globulin Receptor with aldosterone.

For `O=C1NC(=O)[C@@]2(N1)O[C@@H](CO)[C@@H](O)[C@H](O)[C@@H]2O`, the Log K in assay [1] stood at 6.89.
On to `OC[C@H]1OC(O)[C@H](O)[C@@H](O)[C@@H]1O` (some centres not stated), for which the Log K in assay [2] turned out to be 6.28.

These data come from ChEMBL document CHEMBL1133626, “GRid-INdependent descriptors (GRIND): a novel class of alignment-independent three-dimensional molecular descriptors” (J Med Chem, 2000).
